# From PubChem BioAssay AID1424 (The Scripps Research Institute Molecular Screening Center, 2008)
# The list shows a part of the results, in another mix than the full data. Activity calls are given as the source filed them.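 The calls were made as follows: active = activation above its plate's cutoff, the mean activation of test wells on that plate plus 3 SD (cut at about 19% in these data); inactive = the rest.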
# System: transient receptor potential cation channel N1 (TRPN1/NompC), Danio rerio
# Test: TRPN1 activation via calcium influx – cell-based, HEK293, calcium fluorescence, zebrafish, primary screen (AID 1424);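 also: 0% = DMSO alone and 100% = 87 µM carbachol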
# Conditions: HEK293 zebrafish TRPN1-YFP, Fluo-8 calcium fluorescence; at 3 µM; stronger effect = higher value; 100% = response to 87 µM carbachol
# Procedure, shortened: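 Assay system: Zebrafish TRPN1-YFP in HEK293 cells | Incubation: Dye loading 1 h at 37 °C, then 30 min room temperature | Measured by: Kinetic Fluo-8 fluorescence, ex 470-495, em 515-575 nm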
row,Compound,activation
1,O=C(NCC1(N2CCCCC2)CCCCC1)c1cccc([N+](=O)[O-])c1,inactive: 2.52%
2,N#CC1(Nc2ccccc2)CCN(CCc2ccccc2)CC1,inactive: 0.48%
3,CN1CCN(CCOC(=O)C(O)(c2ccccc2)c2ccccc2)CC1,inactive: 0.6%
4,COc1ccc(NC2CCN(C(=O)OC(C)(C)C)CC2)cc1,inactive: 0.91%
5,O=C(NCC1(N2CCOCC2)CCCCC1)c1cc(=O)[nH]c2ccccc12,inactive: 0.92%
6,COc1ccc(CN(CCCl)CCCl)cc1Cl,inactive: -0.93%
7,CN(C)c1cccc(C(=O)NCC2(N3CCCCC3)CCCCC2)c1,inactive: 0.13%
8,CC(C)c1ccc(NC2CCN(C(=O)OC(C)(C)C)CC2)cc1,inactive: 0.85%
9,CN1CCC(Nc2cccc(F)c2)CC1,inactive: -0.17%
10,COc1ccc(C(=O)NCC2(N3CCCCC3)CCCCC2)c(OC)c1OC,inactive: 0.68%
11,O=C(NCC1(N2CCOCC2)CCCCC1)c1cc2ccccc2o1,inactive: -0.72%
12,CCOC(=O)N1CCC(Nc2ccc(OC)cc2)CC1,inactive: -0.42%
13,O=C(OC1CN2CCC1CC2)C1c2ccccc2Oc2ccccc21 (centres undefined),inactive: 1.23%
14,N#CC1(Nc2ccccc2)CCN(Cc2ccccc2)CC1,inactive: 1.9%
15,CCOc1ccc(C)cc1CN(CCCl)CCCl,inactive: -0.65%
16,COc1ccc(NC2CCN(CCc3ccccc3)CC2)c(OC)c1,inactive: -0.81%
17,Cc1ccc(OCC(C)C)c(CN(CCCl)CCCl)c1,inactive: 0.55%
18,CCN1CCC(Nc2cccc(F)c2)CC1,inactive: 0.37%
19,CN(C)c1ccc(C(=O)NCC2(N3CCCCC3)CCCCC2)cc1,inactive: -0.72%
20,CCOc1ncccc1C(=O)NCC1(N2CCOCC2)CCCCC1,inactive: 0.15%
21,CC(C)(C)OC(=O)N1CCC(Nc2ccccc2)CC1,inactive: -0.99%
22,CCC(CO)(C(=O)OC1CN2CCC1CC2)c1ccccc1 (centres undefined),inactive: 0.91%
23,COc1cc(OC)cc(C(=O)NCC2(N3CCOCC3)CCCCC2)c1,inactive: -0.72%
24,CCCOc1ccc(C)cc1CN(CCCl)CCCl,inactive: -1.11%
25,COc1ccc(C(=O)NCC2(N3CCOCC3)CCCCC2)cc1OC,inactive: -0.49%
26,N/C(=N\O)c1c(N)no[n+]1[O-],inactive: 1.82%
27,O=C(OC1CN2CCC1CC2)C1c2ccccc2C=Cc2ccccc21 (centres undefined),inactive: -0.45%
28,N#Cc1ccc(C(=O)NCC2(N3CCCCC3)CCCCC2)cc1,inactive: 2.35%
29,c1ccc(CN2CCC(Nc3ccccc3)CC2)cc1,inactive: 0.45%
